Experimental data as given in patent US20230040065A1 (Janssen / Centocor, published 2023).

Protein sequences, listed by entry. Tags and fused reporters are not part of them. Residues count along the entry.
UniProt P01375, 77-233 limits assumed: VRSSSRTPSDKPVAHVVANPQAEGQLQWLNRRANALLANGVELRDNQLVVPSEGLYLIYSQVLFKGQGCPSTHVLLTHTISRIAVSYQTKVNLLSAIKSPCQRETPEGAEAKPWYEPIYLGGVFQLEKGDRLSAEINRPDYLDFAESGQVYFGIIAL

Target: T1, recombinant human TNFα (human, UniProt P01375 77-233, 125I label in the receptor binding assay)
T1 construct: also called huTNFα; tumor necrosis factor alpha
Test: inhibition of 125I-TNFα (5 ng/ml) binding to plate-coated p55-sf2; cA2 spiked into anti-IL-18 control supernatant, preincubated with 125I-TNFα, cpm bound counted

B1: chimeric antibody cA2 (Remicade) (antibody, V domains shown)
VH: EVKLEESGGGLVQPGGSMKLSCVASGFIFSNHWMNWVRQSPEKGLEWVAEIRSKSINSATHYAESVKGRFTISRDDSKSAVYLQMTDLRTEDTGVYYCSRNYYGSTYDYWGQGTTLTVS
VL: DILLTQSPAILSVSPGERVSFSCRASQFVGSSIHWYQQRTNGSPRLLIKYASESMSGIPSRFSGSGSGTDFTLSINTVESEDIADYYCQQSHSWPFTFGSGTNLEVK
For B1, the “IC50 (read off the curve)” value was roughly 10 ng/mL.
